Ab-95 light chain CDR variants: yeast mating affinities

The measurements come from Engelhart et al. 2022 (doi:10.1038/s41597-022-01779-4) through the FLAb antibody collection.

Binding partner: SARS-CoV-2 spike HR2 peptide, sequence PDVDLGDISGINAS.

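Phage display of a naive human antibody library on the peptide gave the parent. In library AAYL52, one, two or three CDR residues were substituted; doubles and triples were drawn at random. AlphaSeq pools MATa yeast showing the antibodies with MATalpha yeast showing the peptide. Mating (16 h, 30 °C) was followed by selection of diploids and sequencing of their barcodes. Scores were corrected for input abundance and mapped to Kd with protein pairs of known affinity run in the same pool. There are three technical replicates.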

Parent: Ab-95, a human scFv built as VH, a (GGGGS)3 linker, VL. Only the CDRs of the light chain vary.
VH: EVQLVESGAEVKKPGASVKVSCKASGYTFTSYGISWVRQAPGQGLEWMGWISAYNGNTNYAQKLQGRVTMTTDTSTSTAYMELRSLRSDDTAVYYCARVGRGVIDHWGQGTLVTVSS
VL: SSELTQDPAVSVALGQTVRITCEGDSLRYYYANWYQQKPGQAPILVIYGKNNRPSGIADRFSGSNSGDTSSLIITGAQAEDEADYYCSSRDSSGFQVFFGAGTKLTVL

Variants are written as CDR1, CDR2 and CDR3 of the light chain (limits as in the source). Parent: EGDSLRYYYAN, GKNNRPS, SSRDSSGFQVF.
Values are log10 of the apparent Kd in nM; lower means stronger binding.
The mean shown is taken over the replicates in which the pair was detected.
Where no diploid with the target was found in that replicate, the entry reads "nd": below detection, most likely a poor binder, though not proof of it.
In this assay the parent's reference entry averaged 2.31; its copy inside this library read 2.25.

log10 Kd, replicates | log10 Kd (nM), mean | CDR-L1 | CDR-L2 | CDR-L3
3.01 nd nd | 3.01 | EGDYLRYYEAN | GKNNRPS | SSRVSSGFQVF
3.78 nd nd | 3.78 | EGDSLRNYYVN | EKNNRPS | SSRDSSGFQVF
2.49 2.79 2.28 | 2.52 | AGDSLRYYNAN | GKCNRPS | SSRDSSGFQVF
1.86 1.93 1.29 | 1.70 | EGTSLGYYYAN | GKNNRPS | SSRDSSGFQVF
nd nd 3.86 | 3.86 | EGDSLRYYYHN | GKNNRPV | SSRDNSGFQVF
3.08 2.94 2.55 | 2.86 | TGDSLRYYYAN | GKNIRPS | SSRDSLGFQVF
3.76 nd nd | 3.76 | EGDLLRAYYAN | GKNNRPC | SSRDSSGFQVF
1.43 1.55 1.29 | 1.42 | DGDSLRYYPAN | GKNNRPS | SSRDSSGFQVF
3.32 nd nd | 3.32 | EGDSLRYYYAH | GKNNRPS | SERDSSGFHVF
nd nd nd | nd | EGDSTRYYYAN | GKNNHPS | SSPDSSGFQVF
nd 5.58 nd | 5.58 | EGDCLTYYYAN | GKNNRPS | SSRDSRGFQVF
3.35 3.42 3.79 | 3.52 | EGDSLRYYYAI | GKNNRTT | SSRDSSGFQVF
nd 3.72 4.03 | 3.87 | EGDSLEYYYAN | AKNNRPS | SSMDSSGFQVF
4.88 3.22 3.51 | 3.87 | EGDSLRYYFGN | GWNNRPS | SSRDSSGFQVF
nd nd nd | nd | EGDSLRYYYAN | GKNNRPS | STRDSSDFQYF
2.97 3.78 4.10 | 3.61 | VGDSLRPYYGN | GKNNRPS | SSRDSSGFQVF
5.23 nd 3.80 | 4.51 | EGDSLRYYYEN | GKQNRPW | SSRDSSGFQVF
3.56 4.12 3.73 | 3.80 | EGDSLRYYYAN | GKNVPPS | SSRDSSGYQVF
3.82 nd nd | 3.82 | EGDSLRYYYAN | QKNTRPS | SSRKSSGFQVF
3.62 nd nd | 3.62 | EGDSLRYYYAE | GKNNRPS | MSRDSSGFQVF
3.24 3.08 3.37 | 3.23 | EGDSLYYYYAN | GKNNRPS | SRRDSSGFQVF
2.90 2.60 2.52 | 2.67 | EGDSLRYYYPV | GKNNRPS | SSRDASGFQVF
nd 3.48 nd | 3.48 | EMDSLPYYYAN | GKFNRPS | SSRDSSGFQVF
3.33 3.00 2.49 | 2.94 | EGDSLRYYYAN | GSNNRPS | SSRDSKGFNVF
nd nd nd | nd | EGDSLRYYYAN | GKNWKPS | HSRDSSGFQVF
2.83 4.26 nd | 3.55 | EGDSLRYYYAN | GKNNRPS | SERWSPGFQVF
nd 4.09 2.74 | 3.41 | EGDSLRYYYAN | GKNEGPS | SSRDSMGFQVF
3.98 3.82 3.71 | 3.84 | EGDSLRYYYAN | GKNNRPS | SSLDSSGFTVF
5.50 nd nd | 5.50 | EGDSLRYYYAN | GKNNRPS | FSRDDSIFQVF
2.74 2.48 2.24 | 2.49 | EGDSLPYYYAN | GKNFRAS | SSRDSSGFQVF
1.75 1.70 1.33 | 1.59 | EGDSLRYYHAN | GKNNRPF | SSRDSSGFQVF
3.16 3.76 3.44 | 3.45 | QGDSLRYYYAN | GKNNRPS | SSNDSSIFQVF
4.08 nd 4.06 | 4.07 | EGDSGRYYYAN | GKNNRPS | KSRDSSGFQVF
3.21 3.78 3.02 | 3.33 | EGDPLRYYYAN | GANNRPS | RSRDSSGFQVF
1.66 1.59 1.41 | 1.56 | EGDSLRSYYAN | GKNNRPS | ISRDSSGFQAF
nd 5.28 nd | 5.28 | EQDSLRYYYAN | GKNNPPS | SSRDSSGFCVF
3.43 3.32 3.74 | 3.50 | EGDSLRYYYAN | GKNTRRS | SVRDSSGFQVF
2.09 2.36 1.68 | 2.04 | EGDSLRSWYAN | GKNNRPS | SSRDSSGFQVY
3.83 nd nd | 3.83 | EGDSLRYYYAN | GQNNSPS | SSRDSSGFQWF
4.20 nd 3.54 | 3.87 | EGDSLRNYYAW | GKNNRPS | SSRDSNGFQVF
3.87 3.66 4.06 | 3.86 | EGDSLRYYYAN | GKYNQPS | SSTDSSGFQVF
2.95 2.44 2.40 | 2.59 | EGDSLEYVYAN | GKNNRPS | SSRDSVGFQVF
nd nd nd | nd | EGDSLRYYYAN | GWNCRTS | SSRDSSGFQVF
1.07 1.02 0.41 | 0.83 | EGYSLRSYDAN | GKNNRPS | SSRDSSGFQVF
3.91 nd nd | 3.91 | EGDLLRYYYAN | GKNNRPS | SHRDSSGFQVR

Excerpt, the first 7 entries:

{"CDR-L1": "EGDYLRYYEAN", "CDR-L2": "GKNNRPS", "CDR-L3": "SSRVSSGFQVF", "log10 Kd, replicates": "3.01 nd nd", "log10 Kd (nM), mean": "3.01"}
{"CDR-L1": "EGDSLRNYYVN", "CDR-L2": "EKNNRPS", "CDR-L3": "SSRDSSGFQVF", "log10 Kd, replicates": "3.78 nd nd", "log10 Kd (nM), mean": "3.78"}
{"CDR-L1": "AGDSLRYYNAN", "CDR-L2": "GKCNRPS", "CDR-L3": "SSRDSSGFQVF", "log10 Kd, replicates": "2.49 2.79 2.28", "log10 Kd (nM), mean": "2.52"}
{"CDR-L1": "EGTSLGYYYAN", "CDR-L2": "GKNNRPS", "CDR-L3": "SSRDSSGFQVF", "log10 Kd, replicates": "1.86 1.93 1.29", "log10 Kd (nM), mean": "1.70"}
{"CDR-L1": "EGDSLRYYYHN", "CDR-L2": "GKNNRPV", "CDR-L3": "SSRDNSGFQVF", "log10 Kd, replicates": "nd nd 3.86", "log10 Kd (nM), mean": "3.86"}
{"CDR-L1": "TGDSLRYYYAN", "CDR-L2": "GKNIRPS", "CDR-L3": "SSRDSLGFQVF", "log10 Kd, replicates": "3.08 2.94 2.55", "log10 Kd (nM), mean": "2.86"}
{"CDR-L1": "EGDLLRAYYAN", "CDR-L2": "GKNNRPC", "CDR-L3": "SSRDSSGFQVF", "log10 Kd, replicates": "3.76 nd nd", "log10 Kd (nM), mean": "3.76"}

Background: pairings of library AAYL52 with three empty control strains gave a value in 28% of cases (median 3.91, 5th percentile 2.90). Values in that range, when seen in few replicates, are hard to tell from nonspecific mating.